Molecular target: T1, WT SMARCAD1, dephosphorylated V974A (human) (UniProt Q9H4L7)
T1 sequence: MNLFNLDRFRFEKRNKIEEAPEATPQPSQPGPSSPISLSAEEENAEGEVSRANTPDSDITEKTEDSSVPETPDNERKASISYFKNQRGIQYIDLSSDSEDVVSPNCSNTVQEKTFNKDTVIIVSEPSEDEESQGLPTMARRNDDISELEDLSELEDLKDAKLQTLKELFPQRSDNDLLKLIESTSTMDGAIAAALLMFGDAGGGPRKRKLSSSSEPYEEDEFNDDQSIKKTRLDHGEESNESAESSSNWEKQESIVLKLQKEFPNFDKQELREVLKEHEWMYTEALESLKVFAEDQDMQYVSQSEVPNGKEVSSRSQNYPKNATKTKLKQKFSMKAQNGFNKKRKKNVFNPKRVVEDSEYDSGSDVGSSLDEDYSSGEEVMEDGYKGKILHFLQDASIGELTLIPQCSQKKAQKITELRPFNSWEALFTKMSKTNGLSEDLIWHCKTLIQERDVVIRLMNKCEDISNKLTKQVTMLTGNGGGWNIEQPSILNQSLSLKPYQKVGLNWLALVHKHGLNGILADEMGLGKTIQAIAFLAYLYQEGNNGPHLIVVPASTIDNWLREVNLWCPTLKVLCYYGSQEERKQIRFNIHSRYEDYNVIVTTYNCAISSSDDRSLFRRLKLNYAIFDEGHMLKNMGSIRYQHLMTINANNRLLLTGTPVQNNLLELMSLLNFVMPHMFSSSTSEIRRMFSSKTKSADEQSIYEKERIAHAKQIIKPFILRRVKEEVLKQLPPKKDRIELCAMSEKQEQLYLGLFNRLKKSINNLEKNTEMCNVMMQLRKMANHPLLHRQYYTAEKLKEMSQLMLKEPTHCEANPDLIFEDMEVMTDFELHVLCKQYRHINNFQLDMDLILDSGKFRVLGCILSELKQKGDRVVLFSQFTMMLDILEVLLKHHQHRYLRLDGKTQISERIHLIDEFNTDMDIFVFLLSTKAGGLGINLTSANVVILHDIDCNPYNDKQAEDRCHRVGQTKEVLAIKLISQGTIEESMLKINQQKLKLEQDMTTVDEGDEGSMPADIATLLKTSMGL
Experiment: fluorescence polarization
Details: dephosphorylated (CIP); FP: 50 mM HEPES pH 7.5, 2 mM DTT, 10% glycerol, 0.01% CHAPS, 0.01% NP-40, no added salt stated, room temperature 30 min; 10 nM nucleosome or DNA, 0-5 uM …

Sequence: CGAGCCAGGCCTGAGAATCCGGTGCCGAGGCCGCTCAATTGGTCGTAGACAGCTCTAGCACCGCTTAAACGCACGTACGCGCTGTCCCCCGCGTTTTAACCGCCAAGGGGATTACTCCCTAGTCTCCAGGCACGTGTCAGATATATACATCCAGGCCTTGTGTCG (double strand) [165 bp 601 nucleosome (7N11)]
- Kd: 85 nM
